Laboratory results as given in patent US20260384438A1, “PYRROLOPYRIMIDINE CARBOXAMIDES” (published 2026).

Amino acid sequences for entries named in this document (tags omitted).
UniProt Q9BZL6, whole entry: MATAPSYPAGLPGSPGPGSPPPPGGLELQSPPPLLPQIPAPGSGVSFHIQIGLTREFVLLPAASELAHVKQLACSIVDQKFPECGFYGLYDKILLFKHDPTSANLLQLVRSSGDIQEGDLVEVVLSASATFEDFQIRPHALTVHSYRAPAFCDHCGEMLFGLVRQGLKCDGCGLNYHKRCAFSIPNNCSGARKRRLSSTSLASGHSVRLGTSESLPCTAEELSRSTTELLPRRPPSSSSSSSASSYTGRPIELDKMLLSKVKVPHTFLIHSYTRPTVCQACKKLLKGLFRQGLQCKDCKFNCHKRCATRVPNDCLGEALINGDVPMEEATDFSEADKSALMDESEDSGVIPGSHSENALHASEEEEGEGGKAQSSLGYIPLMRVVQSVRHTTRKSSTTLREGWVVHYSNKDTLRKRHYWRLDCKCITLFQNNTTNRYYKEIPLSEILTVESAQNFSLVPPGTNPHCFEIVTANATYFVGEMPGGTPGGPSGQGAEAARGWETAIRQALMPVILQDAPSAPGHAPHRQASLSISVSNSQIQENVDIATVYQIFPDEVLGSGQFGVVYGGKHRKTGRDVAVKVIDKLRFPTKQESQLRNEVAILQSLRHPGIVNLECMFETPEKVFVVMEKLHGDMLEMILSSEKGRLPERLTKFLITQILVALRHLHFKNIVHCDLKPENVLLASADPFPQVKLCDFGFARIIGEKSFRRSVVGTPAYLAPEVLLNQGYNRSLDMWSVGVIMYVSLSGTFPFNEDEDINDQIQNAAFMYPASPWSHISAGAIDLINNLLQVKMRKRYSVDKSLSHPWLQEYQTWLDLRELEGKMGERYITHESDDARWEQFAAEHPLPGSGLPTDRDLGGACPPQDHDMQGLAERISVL
UniProt Q13057, whole entry: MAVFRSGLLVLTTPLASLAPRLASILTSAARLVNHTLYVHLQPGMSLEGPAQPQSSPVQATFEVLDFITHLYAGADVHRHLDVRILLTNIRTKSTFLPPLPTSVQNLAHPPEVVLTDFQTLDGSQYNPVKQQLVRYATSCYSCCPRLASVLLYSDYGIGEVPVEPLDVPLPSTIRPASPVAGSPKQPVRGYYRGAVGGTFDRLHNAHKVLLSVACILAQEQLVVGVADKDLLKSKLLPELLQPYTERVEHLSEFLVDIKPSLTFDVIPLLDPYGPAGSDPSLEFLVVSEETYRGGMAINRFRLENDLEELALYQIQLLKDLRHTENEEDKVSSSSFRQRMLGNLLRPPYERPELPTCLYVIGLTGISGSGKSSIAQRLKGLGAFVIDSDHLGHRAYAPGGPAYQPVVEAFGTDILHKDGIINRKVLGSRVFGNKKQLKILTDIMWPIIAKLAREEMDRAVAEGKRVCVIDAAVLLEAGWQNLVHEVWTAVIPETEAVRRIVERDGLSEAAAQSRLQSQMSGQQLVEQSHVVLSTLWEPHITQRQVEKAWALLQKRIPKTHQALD
UniProt Q96PY6, whole entry: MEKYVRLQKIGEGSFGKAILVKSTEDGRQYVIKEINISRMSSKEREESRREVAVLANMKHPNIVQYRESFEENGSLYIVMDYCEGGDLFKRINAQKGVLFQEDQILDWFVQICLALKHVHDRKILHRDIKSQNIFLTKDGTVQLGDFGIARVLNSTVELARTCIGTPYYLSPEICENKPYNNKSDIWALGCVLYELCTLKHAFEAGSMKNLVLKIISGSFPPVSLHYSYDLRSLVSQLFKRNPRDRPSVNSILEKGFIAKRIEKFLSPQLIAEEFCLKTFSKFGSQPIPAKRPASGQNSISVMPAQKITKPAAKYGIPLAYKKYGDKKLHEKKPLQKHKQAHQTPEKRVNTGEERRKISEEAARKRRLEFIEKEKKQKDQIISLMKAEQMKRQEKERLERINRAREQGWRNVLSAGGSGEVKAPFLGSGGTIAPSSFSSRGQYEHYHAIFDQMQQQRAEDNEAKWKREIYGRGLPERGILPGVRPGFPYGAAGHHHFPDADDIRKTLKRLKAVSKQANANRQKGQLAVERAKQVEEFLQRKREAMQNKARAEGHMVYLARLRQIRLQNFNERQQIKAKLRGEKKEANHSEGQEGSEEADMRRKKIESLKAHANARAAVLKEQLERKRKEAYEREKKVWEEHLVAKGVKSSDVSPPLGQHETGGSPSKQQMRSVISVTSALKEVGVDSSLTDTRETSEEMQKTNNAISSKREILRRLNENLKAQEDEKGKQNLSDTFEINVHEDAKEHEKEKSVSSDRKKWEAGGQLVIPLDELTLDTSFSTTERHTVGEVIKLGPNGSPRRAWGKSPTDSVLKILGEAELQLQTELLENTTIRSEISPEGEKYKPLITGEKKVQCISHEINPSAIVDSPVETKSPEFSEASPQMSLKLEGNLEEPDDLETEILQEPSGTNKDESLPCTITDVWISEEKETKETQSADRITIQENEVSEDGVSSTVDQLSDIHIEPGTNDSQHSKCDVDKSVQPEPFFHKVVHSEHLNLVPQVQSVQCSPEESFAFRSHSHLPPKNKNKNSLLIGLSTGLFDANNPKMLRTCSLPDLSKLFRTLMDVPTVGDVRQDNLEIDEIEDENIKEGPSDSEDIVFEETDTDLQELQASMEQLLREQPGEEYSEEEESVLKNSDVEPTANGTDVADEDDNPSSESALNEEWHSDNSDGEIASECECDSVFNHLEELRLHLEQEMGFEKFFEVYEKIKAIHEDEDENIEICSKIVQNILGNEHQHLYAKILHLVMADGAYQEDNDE
UniProt P53779, whole entry: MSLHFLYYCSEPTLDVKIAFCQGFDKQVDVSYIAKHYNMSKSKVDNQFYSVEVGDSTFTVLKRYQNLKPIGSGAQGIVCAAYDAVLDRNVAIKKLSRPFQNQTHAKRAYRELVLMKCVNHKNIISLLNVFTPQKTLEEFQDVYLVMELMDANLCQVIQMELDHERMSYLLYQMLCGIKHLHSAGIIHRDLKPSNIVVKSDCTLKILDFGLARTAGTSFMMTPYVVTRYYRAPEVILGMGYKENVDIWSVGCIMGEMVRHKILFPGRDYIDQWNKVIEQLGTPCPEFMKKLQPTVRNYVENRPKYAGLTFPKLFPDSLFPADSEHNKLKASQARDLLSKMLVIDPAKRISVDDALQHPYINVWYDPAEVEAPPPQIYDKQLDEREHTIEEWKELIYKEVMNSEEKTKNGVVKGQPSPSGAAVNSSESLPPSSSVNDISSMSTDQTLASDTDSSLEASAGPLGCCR
UniProt P53355, whole entry: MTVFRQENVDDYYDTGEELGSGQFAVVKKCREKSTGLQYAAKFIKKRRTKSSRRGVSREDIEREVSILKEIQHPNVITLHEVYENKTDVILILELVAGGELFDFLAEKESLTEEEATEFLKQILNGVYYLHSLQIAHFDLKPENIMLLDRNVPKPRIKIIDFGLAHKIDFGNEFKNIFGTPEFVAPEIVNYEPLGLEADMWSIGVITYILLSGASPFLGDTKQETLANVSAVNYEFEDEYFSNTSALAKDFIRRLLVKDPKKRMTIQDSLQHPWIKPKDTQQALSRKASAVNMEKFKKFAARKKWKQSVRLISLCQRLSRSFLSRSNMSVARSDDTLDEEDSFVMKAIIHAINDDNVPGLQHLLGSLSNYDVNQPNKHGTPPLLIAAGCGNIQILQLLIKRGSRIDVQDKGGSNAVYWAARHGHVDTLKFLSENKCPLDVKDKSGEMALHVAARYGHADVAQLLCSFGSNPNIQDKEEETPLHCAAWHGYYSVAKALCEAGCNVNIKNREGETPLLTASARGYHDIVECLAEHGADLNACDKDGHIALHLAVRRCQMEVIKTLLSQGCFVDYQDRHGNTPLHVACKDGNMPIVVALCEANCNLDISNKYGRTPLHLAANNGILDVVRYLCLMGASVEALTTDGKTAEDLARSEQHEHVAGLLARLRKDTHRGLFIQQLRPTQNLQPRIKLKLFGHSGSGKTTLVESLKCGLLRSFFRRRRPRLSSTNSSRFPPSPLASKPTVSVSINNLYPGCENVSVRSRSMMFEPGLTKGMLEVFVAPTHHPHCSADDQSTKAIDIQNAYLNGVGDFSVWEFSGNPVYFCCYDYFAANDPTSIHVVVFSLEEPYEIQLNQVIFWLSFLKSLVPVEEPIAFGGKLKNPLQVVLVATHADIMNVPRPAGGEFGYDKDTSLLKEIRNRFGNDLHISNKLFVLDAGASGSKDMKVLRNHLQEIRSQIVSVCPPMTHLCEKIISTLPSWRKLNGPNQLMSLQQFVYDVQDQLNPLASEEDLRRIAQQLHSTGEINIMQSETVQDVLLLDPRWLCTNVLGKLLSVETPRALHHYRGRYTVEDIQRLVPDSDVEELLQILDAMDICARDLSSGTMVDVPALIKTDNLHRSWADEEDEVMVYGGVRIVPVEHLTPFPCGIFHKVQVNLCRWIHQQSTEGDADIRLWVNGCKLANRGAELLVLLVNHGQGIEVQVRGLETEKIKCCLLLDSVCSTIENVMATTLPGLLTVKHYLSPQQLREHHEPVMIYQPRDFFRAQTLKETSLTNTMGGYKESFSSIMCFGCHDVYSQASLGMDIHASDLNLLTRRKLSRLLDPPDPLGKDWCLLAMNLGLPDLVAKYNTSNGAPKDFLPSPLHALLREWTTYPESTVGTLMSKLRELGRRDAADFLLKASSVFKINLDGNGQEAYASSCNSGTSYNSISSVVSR
UniProt P51617, whole entry: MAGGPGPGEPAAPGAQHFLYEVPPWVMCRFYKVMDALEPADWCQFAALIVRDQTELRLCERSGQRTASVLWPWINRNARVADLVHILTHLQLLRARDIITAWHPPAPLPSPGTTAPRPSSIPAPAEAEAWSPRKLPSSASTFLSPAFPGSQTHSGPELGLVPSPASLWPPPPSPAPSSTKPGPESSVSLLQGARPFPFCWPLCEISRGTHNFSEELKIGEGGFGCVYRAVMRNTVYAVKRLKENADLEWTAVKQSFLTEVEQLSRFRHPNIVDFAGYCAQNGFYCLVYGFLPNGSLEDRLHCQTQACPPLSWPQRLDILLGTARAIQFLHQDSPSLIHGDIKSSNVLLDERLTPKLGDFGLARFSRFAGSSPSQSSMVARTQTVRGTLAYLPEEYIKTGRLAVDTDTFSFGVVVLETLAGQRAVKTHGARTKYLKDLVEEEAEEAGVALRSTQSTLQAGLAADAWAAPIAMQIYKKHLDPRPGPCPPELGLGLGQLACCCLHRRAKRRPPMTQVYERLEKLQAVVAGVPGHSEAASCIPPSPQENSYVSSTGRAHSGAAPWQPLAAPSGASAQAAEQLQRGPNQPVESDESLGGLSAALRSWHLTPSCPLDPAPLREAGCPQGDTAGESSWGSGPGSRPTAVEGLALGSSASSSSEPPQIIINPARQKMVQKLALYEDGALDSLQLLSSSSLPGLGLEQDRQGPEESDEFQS
UniProt Q96GD4, whole entry: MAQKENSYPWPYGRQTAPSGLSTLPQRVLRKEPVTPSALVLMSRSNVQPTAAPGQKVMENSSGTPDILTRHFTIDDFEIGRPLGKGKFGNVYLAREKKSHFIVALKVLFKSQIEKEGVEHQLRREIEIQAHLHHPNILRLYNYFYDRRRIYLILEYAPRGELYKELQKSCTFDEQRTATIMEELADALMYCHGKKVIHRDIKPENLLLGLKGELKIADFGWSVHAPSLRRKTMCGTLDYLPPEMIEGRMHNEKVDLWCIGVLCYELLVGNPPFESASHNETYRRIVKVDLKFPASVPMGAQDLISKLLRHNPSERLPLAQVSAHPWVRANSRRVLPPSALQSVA
UniProt P51817, whole entry: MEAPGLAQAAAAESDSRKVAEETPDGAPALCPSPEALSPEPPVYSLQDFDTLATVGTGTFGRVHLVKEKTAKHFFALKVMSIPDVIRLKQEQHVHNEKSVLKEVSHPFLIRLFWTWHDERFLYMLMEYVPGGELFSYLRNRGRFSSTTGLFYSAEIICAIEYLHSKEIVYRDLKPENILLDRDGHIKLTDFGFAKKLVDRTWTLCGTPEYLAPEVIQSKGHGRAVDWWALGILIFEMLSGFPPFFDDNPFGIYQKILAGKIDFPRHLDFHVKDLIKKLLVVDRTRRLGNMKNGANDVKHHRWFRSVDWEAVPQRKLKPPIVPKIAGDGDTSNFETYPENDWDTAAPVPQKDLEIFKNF
UniProt Q9UBE8, whole entry: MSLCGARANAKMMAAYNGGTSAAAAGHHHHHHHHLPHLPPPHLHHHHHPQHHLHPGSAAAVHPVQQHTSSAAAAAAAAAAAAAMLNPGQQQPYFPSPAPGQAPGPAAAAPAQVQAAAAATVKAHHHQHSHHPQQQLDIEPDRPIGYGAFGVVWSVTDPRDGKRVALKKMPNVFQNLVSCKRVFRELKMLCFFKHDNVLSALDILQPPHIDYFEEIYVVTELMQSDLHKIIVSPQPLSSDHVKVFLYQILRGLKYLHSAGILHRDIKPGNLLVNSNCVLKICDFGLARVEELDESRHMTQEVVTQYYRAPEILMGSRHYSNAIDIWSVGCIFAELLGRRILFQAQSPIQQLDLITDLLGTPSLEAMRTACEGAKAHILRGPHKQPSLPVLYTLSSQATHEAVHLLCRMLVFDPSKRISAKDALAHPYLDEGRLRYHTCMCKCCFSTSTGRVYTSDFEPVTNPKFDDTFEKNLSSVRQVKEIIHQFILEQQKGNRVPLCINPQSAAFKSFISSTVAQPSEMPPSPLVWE

Assays:
Assay in all cases: KAT chemical proteomics
PRKD2 = PRKD2 (Homo sapiens, UniProt Q9BZL6)
FYN = FYN (Homo sapiens, UniProt P06241)
TTK = TTK (Homo sapiens, UniProt P33981)
HIPK2 = HIPK2 (Homo sapiens, UniProt Q9H2X6)
COASY = COASY (Homo sapiens, UniProt Q13057)
MAP3K5 = MAP3K5 (Homo sapiens, UniProt Q99683)
IPMK = IPMK (Homo sapiens, UniProt Q8NFU5)
MAPK9 = MAPK9 (Homo sapiens, UniProt P45984)
HK1 = HK1 (Homo sapiens, UniProt P19367)
PAK6 = PAK6 (Homo sapiens, UniProt Q9NQU5)
MAP3K11 = MAP3K11 (Homo sapiens, UniProt Q16584)
NEK1 = NEK1 (Homo sapiens, UniProt Q96PY6)
MAPK10 = MAPK10 (Homo sapiens, UniProt P53779)
LYN = LYN (Homo sapiens, UniProt P07948)
NEK6 = NEK6 (Homo sapiens, UniProt Q9HC98)
PLK4 = PLK4 (Homo sapiens, UniProt O00444)
DAPK1 = DAPK1 (Homo sapiens, UniProt P53355)
CAMK2G = CAMK2G (Homo sapiens, UniProt Q13555)
AK1 = AK1 (Homo sapiens, UniProt P00568)
FLT3 = FLT3 (Homo sapiens, UniProt P36888)
MAP4K2 = MAP4K2 (Homo sapiens, UniProt Q12851)
DOLK = DOLK (Homo sapiens, UniProt Q9UPQ8)
FKBP1A = test system: FKBP1A
IRAK1 = IRAK1 (Homo sapiens, UniProt P51617)
AKT2 = AKT2 (Homo sapiens, UniProt P31751)
AURKB = AURKB (Homo sapiens, UniProt Q96GD4)
MPP1 = test system: MPP1
TNK1 = TNK1 (Homo sapiens, UniProt Q13470)
PRKX = PRKX (Homo sapiens, UniProt P51817)
PRKCZ = PRKCZ (Homo sapiens, UniProt Q05513)
CKB = CKB (Homo sapiens, UniProt P12277)
PTK2B = PTK2B (Homo sapiens, UniProt Q14289)
MAP3K1 = MAP3K1 (Homo sapiens, UniProt Q13233)
CAMK2B = CAMK2B (Homo sapiens, UniProt Q13554)
NLK = NLK (Homo sapiens, UniProt Q9UBE8)
ABL2 = ABL2 (Homo sapiens, UniProt P42684)
PRKACA = PRKACA (Homo sapiens, UniProt P17612)
BMP2K = BMP2K (Homo sapiens, UniProt Q9NSY1)
PIM3 = PIM3 (Homo sapiens, UniProt Q86V86)
EPHB1 = EPHB1 (Homo sapiens, UniProt P54762)
LCK = LCK (Homo sapiens, UniProt P06239)

In the case of `Cc1nc(C(F)(F)F)c2c(C(N)=O)c(N)n(-c3c(C)ccc(O)c3C)c2n1` (single isomer, unassigned), the RB50 (PRKD2) was over 50 µM, the RB50 (FYN) was 210 nM and the RB50 (TTK) was over 50 µM. The RB50 (HIPK2) was over 50 µM, the RB50 (COASY) was over 50 µM and the RB50 (MAP3K5) was over 50 µM. It also gave an RB50 (IPMK) of over 50 µM, an RB50 (MAPK9) of over 50 µM and an RB50 (HK1) of over 50 µM. For the same molecule, the RB50 (PAK6) was over 50 µM, the RB50 (MAP3K11) was over 50 µM and the RB50 (NEK1) was over 50 µM. The RB50 (MAPK10) was over 50 µM, the RB50 (LYN) was over 50 µM and the RB50 (NEK6) was over 50 µM. The RB50 (PLK4) was over 50 µM, the RB50 (DAPK1) was over 50 µM and the RB50 (CAMK2G) was over 50 µM. For the same molecule, the RB50 (AK1) was over 50 µM, the RB50 (FLT3) was over 50 µM and the RB50 (MAP4K2) was over 50 µM. It also gave an RB50 (DOLK) of over 50 µM, an RB50 (FKBP1A) of over 50 µM and an RB50 (IRAK1) of over 50 µM. The RB50 (AKT2) was over 50 µM, the RB50 (AURKB) was over 50 µM and the RB50 (MPP1) was over 50 µM. The RB50 (TNK1) was over 50 µM, the RB50 (PRKX) was over 50 µM and the RB50 (PRKCZ) was over 50 µM. It also gave an RB50 (CKB) of over 50 µM, an RB50 (PTK2B) of over 50 µM and an RB50 (MAP3K1) of over 50 µM. The RB50 (CAMK2B) was over 50 µM, the RB50 (NLK) was over 50 µM and the RB50 (ABL2) was 132 nM. It also gave an RB50 (PRKACA) of over 50 µM, an RB50 (BMP2K) of over 50 µM and an RB50 (PIM3) of over 50 µM. For the same molecule, the RB50 (EPHB1) was 191 nM and the RB50 (LCK) was over 50 µM.
